In ChEMBL document CHEMBL2424615, “Design, synthesis, and characterization of novel tetrahydropyran-based bacterial topoisomerase inhibitors with potent anti-gram-positive activity” (J Med Chem, 2013):

Assay: Inhibition of wild type Escherichia coli ATCC 25922 DNA topoisomerase-4 subunit 2ParC/2ParE assessed as pBR322 relaxation after 1 hr

O=C(O)c1cn(C2CC2)c2cc(N3CCNCC3)c(F)cc2c1=O [CIPROFLOXACIN]
IC50: 8 µM
